Measured values taken from US20180153840A1, “THE COMPOSITIONS OF GLYCEROL AND /OR NON-TOXIC AMINO ACIDS FOR INHIBITING AND DESTROYING BIOFILM, INCLUDING RELATED METHODS” (priority 2015, published 2018).

Columns and labels:
[1] = test system: C. albicans biofilm; assay: Fungal biofilm disruption assay; assay type: cell-based, Candida albicans; conditions: 0.4% amino acid
Method: (§1) For fungal biofilm assays, all solutions were prepared in RPMI 1640 medium. All bacterial biofilm solutions were prepared in Trypic Soy Broth (TSB), supplemented with 1% glucose (henceforth referred to as TSB-G). All subsequent procedures were performed in a manner that maintained sterility. A solution of each amino acid to be tested was prepared in weight to volume concentrations ranging from 0.1-5.0%. Amino acids were also tested in combinations. Compound solutions were homogenized with gentle agitation in the dark (4° C., 24 hours) before use.
(§2) All biofilm assays were performed using 384-well non-tissue culture treated polystyrene plates. The fungal species tested are as follows: Candida albicans, Candida guilliermondii Candida parapsilosis, Candida glabrata, Candida tropicalis and Candida dubliniensis. The bacterial species tested are as follows: Staphylococcus aureus (standard wild type and methicillin-resistant strain USA300), Escherichia coli, Pseudomonas aeruginosa and Staphylococcus epidermidis.
For the fungal biofilm disruption assays, 80 μL of RPMI-1640 was added to the plate, along with 1 μL of overnight cell culture. The cells were allowed to adhere to the plate for 90 minutes at 37° C. with shaking (350 rpm). […] Media was carefully aspirated and the biofilm was measured for fungal cell concentration by optical density at 600 nm. […]

[2] = test system: C. albicans biofilm; assay: Fungal biofilm inhibition assay; assay type: cell-based, Candida albicans; conditions: sustained inhibition assay, 0.4% amino acid
Method: as §1, §2
Fungal strains were streaked on Yeast Peptone Dextrose (YPD) agar plates and incubated at 30° C. for 48 hours. A single colony from each strain to be tested was inoculated into YPD broth and grown for 12 hours, at 30° C., shaking at 225 rpm. […] Media was carefully aspirated and the biofilm was measured for fungal cell concentration by optical density at 600 nm. […]

In the case of `N[C@@H](CCS)C(=O)O` [Homocysteine, L-homocysteine], the “Reduce F Biofilm” value [1] is reported as “• (a single dot (●) signifies an effect in a range of about 10 to about 30% change)” and the “Reduce F Biofilm” value [2] is reported as “• (a single dot (●) signifies an effect in a range of about 10 to about 30% change)”.
